# From patent US9766250B2, “Method for detecting protein-protein interaction” (MEDICAL & BIOLOGICAL LABORATORIES CO., LTD., priority 2011, dated 2017)
# By UniProt entry, the sequences of proteins in these tests, tags left out. Residues count along the entry.
# UniProt Q00987, 1-119: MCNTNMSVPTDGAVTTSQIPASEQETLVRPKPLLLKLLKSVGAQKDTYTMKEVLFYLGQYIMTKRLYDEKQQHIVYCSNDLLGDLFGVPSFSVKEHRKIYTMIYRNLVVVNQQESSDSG
# Columns and labels:
# [1] = molecular target: T1, interaction between a p53 protein and an MDM2 protein (Homo sapiens, UniProt Q00987); experiment: Nutlin-3 stepwise addition, live imaging of fluorescent foci in HeLaS3 cells (Example 12); assay type: cell-based; details: HeLaS3 cells expressing p62(PB1)-p53 and AG-MDM2; 0.19, 0.77, 4.8, 12 μM; 15 minutes each
# T1 construct: region having the 7th to 125th amino acids of the MDM2 protein; expressed in transfected cells; host or cells: HeLaS3, transient
# [2] = molecular target: T2, p53 and MDM2 interaction (p62(PB1)-p53 and AG-MDM2) (Homo sapiens, UniProt Q00987); experiment: Time course of fluorescent foci after Nutlin-3 addition, stable CHO-K1 cells (Example 25); assay type: cell-based; details: 10 μM, decrease of assemblies
# T2 construct: region having the 7th to 125th amino acids of the MDM2 protein; expressed in transfected cells
compound,measurement,setting,value
COc1ccc(C2=N[C@@H](c3ccc(Cl)cc3)[C@@H](c3ccc(Cl)cc3)N2C(=O)N2CCNC(=O)C2)c(OC(C)C)c1 [Nutlin-3],fluorescence luminance of fluorescent foci in the field of view vs inhibitor concentration,[1],decreased in a manner dependent on the inhibitor concentration
same,time when the half value of total fluorescence luminance of assemblies was reached,[2],approximately 3 minutes
